# Measured values: PubChem BioAssay AID492956 (The Scripps Research Institute Molecular Screening Center, 2010)
# The entries are a selection whose mix differs from that of the whole data set. The source made the active and inactive calls.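 How the source made its calls: active means inhibition above the mean over all tested compounds plus 3 SD (cut at about 30% in these data); inactive means the rest.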
# Biological target: Platelet-activating factor acetylhydrolase 2, cytoplasmic (Homo sapiens) (UniProt Q99487)
# Assay: PAFAH2 enzyme inhibitors, primary screen, biochemical, fluorescence polarization, human (AID 492956);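 further: inhibitors block probe labeling of enzyme so polarization drops; 0% = enzyme with DMSO and 100% = wells lacking PAFAH2 protein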
# Settings: recombinant PAFAH2, FP-rhodamine activity probe, at 3.39 µM, hits give high values
row,SMILES,inhibition
1,COc1ccc(CN(CCCl)CCCl)cc1Cl,inactive: 1.07%
2,CN(C)c1cccc(C(=O)NCC2(N3CCCCC3)CCCCC2)c1,inactive: -0.55%
3,CC(C)c1ccc(NC2CCN(C(=O)OC(C)(C)C)CC2)cc1,inactive: -0.01%
4,COc1cc(OC)c(C(=O)NCC2(N(C)C)CCCCC2)cc1OC,inactive: 0.72%
5,O=C(NCC1(N2CCOCC2)CCCCC1)c1cc(F)c(F)cc1Cl,inactive: 5.43%
6,O=C(NCC1(N2CCCCC2)CCCCC1)c1cncc(Br)c1,inactive: 0.16%
7,CN1CCC(Nc2cccc(F)c2)CC1,inactive: 3.48%
8,CCCOc1ccc(C(=O)NCC2(N(C)C)CCCCC2)cc1OC,inactive: -1.83%
9,O=C(NCC1(N2CCCCC2)CCCCC1)c1ccc(OC(F)F)cc1,inactive: 6.93%
10,O=C(NCC1(N2CCCCC2)CCCCC1)c1cccc([N+](=O)[O-])c1,inactive: -2.44%
11,CSc1ccc(C(=O)NCC2(N3CCOCC3)CCCCC2)cc1,inactive: -1.58%
12,CCN1CCC(Nc2ccc(Cl)cc2)CC1,inactive: 0.95%
13,N#CC1(Nc2ccccc2)CCN(CCc2ccccc2)CC1,inactive: 4.69%
14,O=C(NCC1(N2CCCCC2)CCCCC1)c1cccc(C(F)(F)F)c1,inactive: 8.35%
15,CN1CCN(CCOC(=O)C(O)(c2ccccc2)c2ccccc2)CC1,inactive: -1.08%
16,CC(C)c1ccc(C(=O)NCC2(N3CCOCC3)CCCCC2)cc1,inactive: 1.34%
17,COc1ccc(NC2CCN(C(=O)OC(C)(C)C)CC2)cc1,inactive: 4.86%
18,COc1cc(C(=O)NCC2(N3CCCCC3)CCCCC2)ccc1OC(F)F,inactive: -2.66%
19,O=C(NCC1(N2CCOCC2)CCCCC1)c1cc(=O)[nH]c2ccccc12,inactive: 5.14%
20,CCOc1ccc(C)cc1CN(CCCl)CCCl,inactive: 3.98%
21,O=C1CCN(Cc2ccccc2)CC1,inactive: 2.83%
22,O=C(NCC1(N2CCCCC2)CCCCC1)c1ccc(F)cc1,inactive: -11.4%
23,O=P1(N(CCCl)CCCl)SCCCS1,inactive: 1.46%
24,CCCCOc1ccc(C(=O)NCC2(N3CCOCC3)CCCCC2)cc1,inactive: -4.56%
25,COc1ccc(NC2CCN(CCc3ccccc3)CC2)c(OC)c1,inactive: 3.26%

row,SMILES,inhibition
1,CCOC(=O)N1CCC(Nc2ccc(F)cc2)CC1,inactive: -1.31%
2,COc1cc(C(=O)NCC2(N(C)C)CCCCC2)ccc1OC(F)F,inactive: -9.06%
3,CCOC(=O)N1CCC(Nc2cccc(C)c2)CC1,inactive: 2.84%
4,O=C(NCC1(N2CCCCC2)CCCCC1)c1ccc(=O)[nH]c1,inactive: 6.17%
5,O=C(NCC1(N2CCCCC2)CCCCC1)c1cccs1,inactive: 4.82%
6,COc1ccc(C(=O)NCC2(N3CCCCC3)CCCCC2)cc1,inactive: 6.8%
7,CC(C)(C)OC(=O)N1CCC(N(C(=O)c2ccccc2)c2ccc(F)cc2)CC1,inactive: 7.55%
8,COc1ccc(C(=O)NCC2(N3CCCCC3)CCCCC2)c(OC)c1OC,inactive: -4.37%
9,CSc1ccccc1C(=O)NCC1(N2CCCCC2)CCCCC1,inactive: -2.82%
10,Cc1cccc(NC2(C#N)CCN(Cc3ccccc3)CC2)c1,inactive: 0.59%
11,O=C(NCC1(N2CCOCC2)CCCCC1)c1cc2ccccc2o1,inactive: -3.71%
12,O=C(NCC1(N2CCCCC2)CCCCC1)c1ccc(Cl)nc1,inactive: -0.86%
13,Cc1cc(C)cc(N(C(=O)c2ccccc2)C2CCN(C(=O)OC(C)(C)C)CC2)c1,inactive: -0.36%
14,CCOC(=O)N1CCC(Nc2ccc(OC)cc2)CC1,inactive: 6.64%
15,O=C(OC1CN2CCC1CC2)C1c2ccccc2Oc2ccccc21 (centres undefined),inactive: 4.17%
16,O=C(NCC1(N2CCCCC2)CCCCC1)c1ccc(Cl)s1,inactive: 3.35%
17,N#CC1(Nc2ccccc2)CCN(Cc2ccccc2)CC1,inactive: 1.5%
18,COc1ccc(Cl)cc1C(=O)NCC1(N2CCOCC2)CCCCC1,inactive: -11.3%
19,CCOc1ncccc1C(=O)NCC1(N2CCOCC2)CCCCC1,inactive: 1.18%
20,CN1CCC(Nc2ccc(F)c(Cl)c2)CC1,inactive: -7.15%
21,CCCOc1ccc(C(=O)NCC2(N(C)C)CCCCC2)cc1,inactive: -4.44%
22,CC(C)(C)OC(=O)N1CCC(Nc2ccccc2)CC1,inactive: 1.57%
23,O=C(O)C1(Nc2ccccc2)CCN(Cc2ccccc2)CC1,inactive: 0.87%
24,CCC(CO)(C(=O)OC1CN2CCC1CC2)c1ccccc1 (centres undefined),inactive: 0.79%
25,COc1cc(OC)cc(C(=O)NCC2(N3CCOCC3)CCCCC2)c1,inactive: -2.56%

row,SMILES,inhibition
1,COc1cccc(C(=O)N(c2cc(C)cc(C)c2)C2CCN(C(=O)OC(C)(C)C)CC2)c1,inactive: -1.93%
2,CN1CCC(Nc2ccc(Cl)cc2)CC1,inactive: 2.5%
3,COc1cc(OC)cc(C(=O)NCC2(N3CCCCC3)CCCCC2)c1,inactive: 10.8%
4,CC(=O)N(c1ccccc1)C1CCNCC1,inactive: -5.27%
5,Cc1ccc(NC2(C#N)CCN(Cc3ccccc3)CC2)cc1,inactive: 0.37%
6,Cc1ccc(C(=O)NCC2(N3CCCCC3)CCCCC2)o1,inactive: 1.97%
7,Fc1ccccc1NC1CCN(Cc2ccccc2)CC1,inactive: -1.99%
8,Cc1ccccc1NC1(C#N)CCN(Cc2ccccc2)CC1,inactive: -2%
9,CCN1CCC(Nc2cccc(F)c2)CC1,inactive: -3.43%
10,O=C(NCC1(N2CCCCC2)CCCCC1)c1ccco1,inactive: -8.61%
11,Cn1c(=O)[nH]cc(N(CCCl)CCCl)c1=O,inactive: 3.63%
12,CN(C)c1ccc(C(=O)NCC2(N3CCCCC3)CCCCC2)cc1,inactive: 5.61%
13,CC(C)(C)OC(=O)N1CCC(N(C(=O)c2ccccc2)c2ccc(Cl)cc2)CC1,inactive: 1.06%
14,N#Cc1ccc(C(=O)NCC2(N3CCCCC3)CCCCC2)cc1,inactive: 7.96%
15,c1ccc(CN2CCC(Nc3ccccc3)CC2)cc1,inactive: 3.57%
16,Cc1cc(N(CCCl)CCCl)ccc1C=O,inactive: -0.96%
17,CCCN1CCC(Nc2cc(OC)cc(OC)c2)CC1,inactive: 2.71%
18,CN(C)C1(CNC(=O)c2cccc(C#N)c2)CCCCC1,inactive: 5.93%
19,O=C(NCC1(N2CCOCC2)CCCCC1)c1cc(Br)ccc1Cl,inactive: 2.81%
20,COc1cc(C(=O)NCC2(N3CCOCC3)CCCCC2)cc(OC)c1C,inactive: 1.87%
21,COc1ccc(C(=O)NCC2(N3CCOCC3)CCCCC2)cc1OC,inactive: -6.08%
22,N/C(=N\O)c1c(N)no[n+]1[O-],inactive: 4.61%
23,CCOC(=O)N1CCC(Nc2ccc(C)cc2)CC1,inactive: -2.58%
24,O=C(OC1CN2CCC1CC2)C1c2ccccc2C=Cc2ccccc21 (centres undefined),inactive: -8.26%
